Target: VIP receptor 1 (VPAC1) (Homo sapiens, UniProt P32241)
Assay: cAMP assay, COS-7 cells transiently expressing VPAC1
Assay type: cell-based

By UniProt entry, the sequences of proteins in these tests, tags left out. Residues count along the entry.
UniProt P32241, 31-457: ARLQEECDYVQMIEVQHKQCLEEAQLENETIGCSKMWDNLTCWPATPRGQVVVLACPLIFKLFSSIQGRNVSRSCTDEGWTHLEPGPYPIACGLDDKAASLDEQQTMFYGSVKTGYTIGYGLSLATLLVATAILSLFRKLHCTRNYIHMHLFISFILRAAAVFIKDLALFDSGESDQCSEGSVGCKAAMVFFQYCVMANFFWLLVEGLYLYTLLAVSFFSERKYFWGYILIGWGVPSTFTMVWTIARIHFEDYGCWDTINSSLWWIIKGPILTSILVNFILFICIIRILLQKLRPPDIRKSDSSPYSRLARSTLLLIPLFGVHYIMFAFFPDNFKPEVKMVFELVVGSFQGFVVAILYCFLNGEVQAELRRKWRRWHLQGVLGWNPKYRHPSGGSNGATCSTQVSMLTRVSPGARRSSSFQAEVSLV

CC[C@H](C)[C@H](NC(=O)[C@H](CO)NC(=O)[C@H](CC(N)=O)NC(=O)[C@H](CC(C)C)NC(=O)[C@H](Cc1ccc(O)cc1)NC(=O)[C@H](CCCCN)NC(=O)[C@H](CCCCN)NC(=O)[C@@H](NC(=O)[C@H](C)NC(=O)[C@H](CCSC)NC(=O)[C@H](CCC(N)=O)NC(=O)[C@H](CCCCN)NC(=O)[C@H](CCCNC(=N)N)NC(=O)[C@H](CC(C)C)NC(=O)[C@H](CCCNC(=N)N)NC(=O)[C@@H](NC(=O)[C@H](Cc1ccc(O)cc1)NC(=O)[C@H](CC(N)=O)NC(=O)[C@H](CC(=O)O)NC(=O)[C@@H](NC(=O)[C@H](Cc1ccccc1)NC(=O)[C@@H](NC(=O)[C@H](C)NC(=O)[C@H](CC(=O)O)NC(=O)[C@H](CO)NC(=O)[C@@H](N)Cc1c[nH]cn1)C(C)C)[C@@H](C)O)[C@@H](C)O)C(C)C)C(=O)N[C@@H](CC(C)C)C(=O)N[C@@H](CC(N)=O)C(N)=O [VIP, vasoactive intestinal polypeptide, reference compound] was tested, and the “Efficacy raw data for Glucagon-receptors, VPAC1 + VIP” value (“Efficacy raw data” for short) (replicate 1) was 100, the “Efficacy raw data” value (replicate 2) was 99.99 and the “Efficacy raw data” value (replicate 3) was 100.

Source: article PMC7441158 (Nature Communications, 2020)
